This is an account of results in ChEMBL document CHEMBL4014323, “Hydroxy-Substituted Heteroarylpiperazines: Novel Scaffolds for β-Arrestin-Biased D2R Agonists” (J Med Chem, 2017).

Sequences of proteins named here, by UniProt entry; tags and fusion partners are left off.
UniProt P21728, whole entry: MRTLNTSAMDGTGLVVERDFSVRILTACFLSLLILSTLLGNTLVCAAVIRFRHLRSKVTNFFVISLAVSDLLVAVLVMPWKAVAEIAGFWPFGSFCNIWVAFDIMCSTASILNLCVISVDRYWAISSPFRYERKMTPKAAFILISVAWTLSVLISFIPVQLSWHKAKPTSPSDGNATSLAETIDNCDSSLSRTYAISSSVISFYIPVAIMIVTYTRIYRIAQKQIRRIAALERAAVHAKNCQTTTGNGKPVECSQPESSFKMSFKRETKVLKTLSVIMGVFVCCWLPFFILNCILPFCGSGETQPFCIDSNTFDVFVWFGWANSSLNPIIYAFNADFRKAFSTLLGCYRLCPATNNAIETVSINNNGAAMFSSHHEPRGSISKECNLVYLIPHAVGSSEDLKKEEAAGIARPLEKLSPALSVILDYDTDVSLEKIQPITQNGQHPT
UniProt P21918, whole entry: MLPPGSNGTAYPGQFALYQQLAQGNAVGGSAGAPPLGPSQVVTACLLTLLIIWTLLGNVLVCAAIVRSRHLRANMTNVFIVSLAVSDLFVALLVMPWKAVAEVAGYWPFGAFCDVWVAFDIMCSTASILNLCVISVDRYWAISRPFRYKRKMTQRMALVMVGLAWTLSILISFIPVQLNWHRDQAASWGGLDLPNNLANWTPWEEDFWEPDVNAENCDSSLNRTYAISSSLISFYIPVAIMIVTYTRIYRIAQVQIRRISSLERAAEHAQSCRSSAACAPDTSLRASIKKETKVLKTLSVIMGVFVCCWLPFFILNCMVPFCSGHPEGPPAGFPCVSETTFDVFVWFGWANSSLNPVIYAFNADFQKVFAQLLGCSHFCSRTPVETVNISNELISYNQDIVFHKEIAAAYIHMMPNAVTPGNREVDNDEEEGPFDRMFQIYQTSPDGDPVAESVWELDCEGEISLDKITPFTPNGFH

In one assay the target is D(1A) dopamine receptor (Homo sapiens, UniProt P21728). Briefly: biochemical.
Another assay deals with D(1B) dopamine receptor (Homo sapiens, UniProt P21918). Briefly: biochemical.

Turning to `O=C1CCc2ccc(OCCCCN3CCCN(c4cccc(Cl)c4Cl)CC3)cc2N1`, the Ki turned out to be 340 nM on D(1A) dopamine receptor and 1100 nM on D(1B) dopamine receptor.

In general, Ki refers to the dissociation constant of the complex between target and ligand, obtained from inhibition or displacement.
